This experiment has as its target Aldo-keto reductase family 1 member B1 (Bos taurus, UniProt P16116). Kind of experiment: In vitro inhibition of aldose reductase in partially purified bovine lens preparation at a concentration of 10e -8M.

Consider one molecule from ChEMBL document CHEMBL1125678, “Quinazolineacetic acids and related analogues as aldose reductase inhibitors” (J Med Chem, 1991).

As to `COc1ccc2c(C(=S)N(C)CC(=O)O)cccc2c1C(F)(F)F` [TOLRESTAT], inhibition was half-maximal at 33 nM (IC50). That is a double-digit nanomolar value.
